Values quoted from earlier work in article PMC8284931 (Journal of biomolecular screening, 2012).

Details: amoxapine with its 8-OH metabolite included; reported, no reference given; cited from earlier work

Clc1ccc2c(c1)C(N1CCNCC1)=Nc1ccccc1O2 [Amoxapine, amoxapine]
blood concentration safely achieved: up to 1.27 μM
